Columns and labels:
α2/β1 GABAA receptors = molecular target: T1, α2/β1 GABAA receptors (Homo sapiens, UniProt P18505+P47869); conditions: 100 μM GABA, α2/β1, exponential fit
T1 sequence (P47869 29-451): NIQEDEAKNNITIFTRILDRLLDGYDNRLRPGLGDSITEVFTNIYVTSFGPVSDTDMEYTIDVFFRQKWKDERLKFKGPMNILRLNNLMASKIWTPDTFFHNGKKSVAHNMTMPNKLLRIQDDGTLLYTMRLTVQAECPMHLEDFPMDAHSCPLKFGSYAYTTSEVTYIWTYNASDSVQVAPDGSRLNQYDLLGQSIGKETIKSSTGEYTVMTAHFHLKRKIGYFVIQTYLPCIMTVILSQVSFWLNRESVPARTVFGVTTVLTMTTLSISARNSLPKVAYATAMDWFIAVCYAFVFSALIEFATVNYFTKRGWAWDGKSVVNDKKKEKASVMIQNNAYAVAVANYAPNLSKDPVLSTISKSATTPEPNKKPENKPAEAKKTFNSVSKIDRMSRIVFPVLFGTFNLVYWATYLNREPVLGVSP
T1 sequence (P18505 26-474): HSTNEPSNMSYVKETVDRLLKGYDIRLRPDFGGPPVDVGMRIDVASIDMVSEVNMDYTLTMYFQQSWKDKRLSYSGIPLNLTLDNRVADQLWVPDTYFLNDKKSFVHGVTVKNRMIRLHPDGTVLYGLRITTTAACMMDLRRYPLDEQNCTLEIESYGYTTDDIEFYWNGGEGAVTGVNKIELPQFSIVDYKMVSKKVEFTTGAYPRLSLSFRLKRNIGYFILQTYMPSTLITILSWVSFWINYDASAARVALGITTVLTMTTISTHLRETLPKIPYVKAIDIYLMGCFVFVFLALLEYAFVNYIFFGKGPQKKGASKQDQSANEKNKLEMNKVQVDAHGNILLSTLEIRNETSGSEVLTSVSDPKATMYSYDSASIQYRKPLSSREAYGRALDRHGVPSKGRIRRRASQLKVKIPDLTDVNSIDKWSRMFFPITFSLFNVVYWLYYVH

GABAA receptor ε-subunit = molecular target: T2, GABAA receptor ε-subunit (Homo sapiens, UniProt P78334, S102A); conditions: 100 μM; cells transfected with only ε-subunit cDNA
T2 sequence (P78334 23-506 S102A): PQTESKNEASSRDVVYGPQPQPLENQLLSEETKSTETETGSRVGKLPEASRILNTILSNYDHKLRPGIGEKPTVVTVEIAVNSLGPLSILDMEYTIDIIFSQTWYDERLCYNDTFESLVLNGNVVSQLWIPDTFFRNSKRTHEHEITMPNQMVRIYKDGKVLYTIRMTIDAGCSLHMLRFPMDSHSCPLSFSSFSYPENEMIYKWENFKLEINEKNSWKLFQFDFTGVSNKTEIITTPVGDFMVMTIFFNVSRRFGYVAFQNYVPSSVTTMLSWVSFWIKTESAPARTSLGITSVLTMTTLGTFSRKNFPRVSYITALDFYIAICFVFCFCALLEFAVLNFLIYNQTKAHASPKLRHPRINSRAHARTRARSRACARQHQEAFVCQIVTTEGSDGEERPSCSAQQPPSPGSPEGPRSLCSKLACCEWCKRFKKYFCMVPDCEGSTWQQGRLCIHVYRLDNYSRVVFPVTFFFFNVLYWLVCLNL

Reversal potential of GABA-evoked currents (α2/β1 GABAA receptors) [mV]	Chloride currents in response to agonist (GABAA receptor ε-subunit)	SMILES
4.4	failed to exhibit chloride currents	NCCCC(=O)O [GABA, γ-aminobutyric acid]
–	failed to exhibit chloride currents	NCC(=O)O [glycine]

Source: patent US7029870B1 (priority 1997, dated 2006)
